The data set deals with N=C(N)NCCCCN. Briefly: purified protein. To be noted: Tris pH 9, agmatine sulfate 100 μM to 30 mM.

For orientation: Km means the substrate concentration at which the rate is half of its maximum. One may read the kcat as the maximal rate divided by the concentration of active sites.

For “Agu2A (Pseudomonas aeruginosa UCBPP-PA14)”, where the note is “37 °C”, the Km is reported as 0.136 ± 0.040 mM and the catalytic constant (kcat) came to 14.12 ± 0.49 s⁻¹.

In the case of “Agu2A′ (Pseudomonas aeruginosa UCBPP-PA14)”, under “25 °C”, the Km came to 2.624 ± 1.125 mM and the catalytic constant (kcat) was found to be 33.27 ± 4.22 s⁻¹.

(Values after publication PMC4227303.)
